The experiment deals with T1, Acyl-CoA desaturase 1 (Rattus norvegicus, UniProt P07308).
T1 sequence (P07308 whole entry): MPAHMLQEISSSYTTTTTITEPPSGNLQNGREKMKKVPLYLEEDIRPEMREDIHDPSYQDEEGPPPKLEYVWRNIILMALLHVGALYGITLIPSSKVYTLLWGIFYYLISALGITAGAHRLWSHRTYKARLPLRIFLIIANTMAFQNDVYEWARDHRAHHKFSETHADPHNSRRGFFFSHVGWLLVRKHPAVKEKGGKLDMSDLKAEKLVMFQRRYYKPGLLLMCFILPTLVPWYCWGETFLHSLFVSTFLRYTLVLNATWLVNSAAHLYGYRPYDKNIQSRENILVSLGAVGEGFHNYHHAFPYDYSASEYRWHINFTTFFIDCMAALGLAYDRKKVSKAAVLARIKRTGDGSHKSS
Nature of the experiment: Inhibition of SCD1 in Sprague-Dawley rat liver microsomes using stearoyl-[9,10-3H]-CoA as substrate. A general note: Liver microsomes are vesicles of endoplasmic reticulum, rich in cytochrome P450 enzymes.

Results on 1 compound are retold here after ChEMBL document CHEMBL3124745, “4-Bicyclic heteroaryl-piperidine derivatives as potent, orally bioavailable stearoyl-CoA desaturase-1 (SCD1) inhibitors: part 2. Pyridazine-based analogs” (Bioorg Med Chem Lett, 2014).

SMILES strings stand for the structures.

Take `Cn1cc(-c2ccc(N3CCC(N4CCc5ccc(F)cc54)CC3)nn2)cn1`: the IC50 was 37 nM.

For orientation: IC50 means the midpoint of a concentration-inhibition curve. A lower IC50 goes with greater potency.
